This is an account of results in US20080287445A1, “Prokineticin 2 receptor antagonists” (priority 2005, published 2008).

This assay has as its system rat ileum mucosa.

Regarding `CN1[C@@H]2CC[C@H]1C[C@@H](OC(=O)C(CO)c1ccccc1)C2` (some centres unmarked) [Atropine, reference compound], the “blockade of the pro-secretory effect of PK1” value was “not blocked”.

As to `NC1=N[C@H](O)[C@H]2[C@H]3O[C@]4(O)O[C@@H]([C@@H](O)[C@@]2(N1)[C@@H]4O)[C@]3(O)CO` [Tetrodotoxin, reference compound], the “blockade of the pro-secretory effect of PK1” value is reported as “not blocked”.
